Molecular target: cloned human δ opioid receptor (Homo sapiens, UniProt P41143)
Test: Radioligand binding, competitive inhibition of [3H]DPDPE
Conditions: Table 7

## S=C(Nc1ccccc1)N1CCC(c2ccccc2)(c2nccn2Cc2ccccc2)CC1
  pIC50 values for the delta opioid receptor agonist test: 7.4

## CS(=O)(=O)N1CCC(c2ccccc2)(c2nccn2Cc2ccccc2)CC1
  pIC50 values for the delta opioid receptor agonist test: 7.4

## O=[N+]([O-])C=C(Nc1ccccc1)N1CCC(c2ccccc2)(c2nccn2Cc2ccccc2)CC1
  pIC50 values for the delta opioid receptor agonist test: 7.5

— patent publication US20060287345A1, “Substituted 4-phenyl-4-[1h-imidazol-2-yl]-piperidine derivatives as selective non-peptide delta opiod agonists with antidepressant and anxiolytic activity” (priority 2003, published 2006)
